For the test, the system named is extracellular superoxide anion production of MKN-45 cells. Put plainly: extracellular superoxide anion production of MKN-45 cells (Cu SOD bell curve shift). Type of test: cell-based. Conditions: lower epothilone concentration; malvidin chloride, artemisinin; 150 mM 3-AT, 8 hours.

These results are taken from patent publication US20160220542A1, “SYNERGISTIC ACTIVITY OF MODULATORS OF THE NO METABOLISM AND OF NADPH OXIDASE IN THE SENSITISATION OF TUMOR CELLS” (Universitaetsklinikum Freiburg, priority 2010, published 2016).

On to `C[C@@H]1CC[C@H]2[C@@H](C)C(=O)O[C@@H]3O[C@@]4(C)CC[C@@H]1[C@]32OO4` [artemisinin], for which the “effect on superoxide anion production” value is “did not demonstrate any effect”.
